Data from US5593970A, “Heterocyclic anthracycline analogs” (priority 1994, dated 1997).

Key:
OVCAR-4 = test: NCI sulforhodamine B assay; type: cell-based; conditions: Homo sapiens, OVCAR-4, OVCAR-4; read-out: Log10 GI50 (converted)
Procedure: (§1) These assays were carried out at the Developmental Therapeutics Program, Division of Cancer Treatment, National Cancer Institute (Bethesda, Md., U.S.A.). The method consists of incubating varying concentrations of the drug with an inoculum of cells for two days. […] The 57 cell lines included two mouse leukemia lines (P388 parental and adriamycin resistant) and […] human cell lines.
(§2) It should be noted that the first two parameters (GI50 and TGI) relate to antiproliferation effects while the third one (LC50) indicates true cytotoxicity. A value of -4 or greater is considered to denote resistance (inactivity).

NCl-H23 = test: NCI sulforhodamine B assay; type: cell-based; conditions: Homo sapiens, read-out: Log10 GI50 (converted)
Procedure: as §1, §2

HT29 = test: Soft agar colony formation disk diffusion assay; type: cell-based, human; conditions: 100 μg/DISK
Excerpt: A more elaborate version of this fundamental assay, the soft agar colony formation disk diffusion assay was used. This assay defines the relative activity of one particular drug versus a tumoral cell line type. The effect of the test drug against tumoral cells could be measured by its inhibitory capacity against colony formation after the delivery of the compound, in different concentrations on an filter disk(4). A modified technique of this assay was used in order to investigate the antiproliferative activity of candidate compounds. Tumoral cells from solid tumors and ascitic lines were plated separately in a two layer agar matrix. Cell lines to be tested were suspended in an upper layer of 0.4% Noble agar (Difco#00142-01) in RPMI-1066 (Gibco#3201875) at a yield varying between 10^4 to 2×10^5 cells per 60 mm Petri dish. Plating efficiency was determined for each line in order to achieve an optimal number of colonies per dish. Plates were examined before drug administration to confirm a uniform dispersion of single cells. The bottom layer consisted of 0.8% Noble agar, 0.8% Tryptic Soy Broth (difco#0037001)in CMRL-1066/Fischer's. The bottom layers were used within 2 and 9 days of preparation. […]

CNS = test: NCI assay, average per cancer type; conditions: 2880 min

With `COC(=O)C1CC2=C(C(=O)c3c(cc4ccccc4c3O)C2=O)C(O[C@H]2C[C@H](NC(=O)C(F)(F)F)[C@H](O)[C@H](C)O2)O1` (mixture of isomers) [BCH-242, (1'S,1R,3S) and (1'S, 1S,3R)-Methyl[11-hydroxy-1-2',3',6'-trideoxy-3-trifluroacetamido-L-lyxohexopyranose)-5,12-dioxo-3,4,5,12-tetrahydroanthraceno[2,3-c]pyran-3-yl]formate] the GI50 (OVCAR-4) was 1820 nM and the GI50 (NCl-H23) was 1820 nM.
`COC(=O)[C@H]1CC2=C(C(=O)c3c(cc4ccccc4c3O)C2=O)[C@H](O[C@H]2C[C@H](NC(=O)C(F)(F)F)[C@H](O)[C@H](C)O2)O1` (mixture of isomers) [BCH-692, (1'S,1S,3R) and (1'S,1R,3S) Methyl[11-hydroxy-1-(2',3',6'-trideoxy-3'-trifluoroacetamido-4'-hydroxy-L-lyxohexopyranose)-5,12-dioxo-3,4,5,12-tetrahydro-anthraceno[2,3-c]pyran-3-yl]formate] was tested, and the zone of inhibition (HT29) was 181.5 ± 2.1 Zone Units.
With `COc1cccc2c1C(=O)c1c(O)c3c(c(O)c1C2=O)C[C@@](O)(C(=O)CO)C[C@@H]3O[C@H]1C[C@H](N)[C@H](O)[C@H](C)O1` [ADR, reference compound] the “Average LOG10 LC50” value (CNS) was -5.03 ± 0.35 log molar.
